# Test results as given in PMC9260860 (Biochemistry, 2021).
# System: 5′-methylthioadenosine
# Assay: purified protein, by the assay type
# Details: other: deamination by HpAFLDA, 50 mM HEPES pH 7.0, 25 °C
substance,measurement,value
HpAFLDA (jhp0252) (Helicobacter pylori J99),Km,100 ± 10 µM
same,kcat,1.24 s⁻¹
same,kcat/Km,13000 M⁻¹ s⁻¹
